Bioassay records from PubChem BioAssay.
TrxR1 substrate = substrates of rat thioredoxin reductase 1. hit rate 0.01% among 390,000. Potency, µM (titrated, usually from 114 µM). O89049. purified TrxR1 substrate turnover, NADPH consumption readout; further: nearly all actives have a fitted effect of over 50% in size
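Rat TrxR1, dispensed at 90 nM, was prereduced with 400 uM NADPH (final) for 5 min at ~22 deg C, then incubated with compound 15 min before 400 uM selenite. A first-read NADPH fluorescence drop versus no-compound background flagged substrates.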
miR-21 reporter = miR-21 reporter, rising signal | AID 2288 | HeLa miR-21 FLuc reporter, luciferase, 48 h | 340,000 tested, under 10 active | Potency, µM (doses to about 38.3 µM); active = well fitted rising curve with a large enough effect; inconclusive = small, poorly fitted or top-dose-only effect; inactive = no such curve, though single readings can be large or run the other way;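 note: miR-21 action dims this reporter so a rising signal means less miR-21 action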
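Compounds were titrated across several concentrations (up to approximately 40 uM) and incubated 48 hours with HeLa miR-21-FLuc reporter cells (miR-21 target sequence downstream of FLuc, endogenous miR-21). Readout was firefly luciferase luminescence after lytic detection reagent.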
ClpP mod = qHTS Assay for Activators of ClpP | AID 651965, 2013 | ATP-dependent Clp protease proteolytic subunit (Bacillus subtilis (strain 168)), P80244 | Potency, µM (top dose mostly 57.5 µM) | hit rate 1.9% among 340,000 | purified B. subtilis ClpP, FRET peptide cleavage, 20 min; active means well fitted falling curve with a large enough effect; inconclusive means small, poorly fitted or top-dose-only effect; inactive means no such curve, though single readings can be large or run the other way; further: the source files actives as falling curves though it sought activators and does not explain the sign; nearly all actives have a fitted effect of over 65% in size
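Purified B. subtilis ClpP, 10 microg/mL final in Tris/HCl pH8 with KCl, BSA, glycerol and Tween-20, cleaved an Abz/nitrotyrosine-quenched decapeptide. Fluorescence (ex 320, em 430) was read at 0 and 20 min at room temperature. Delta was normalized to 5.8 microM ADEP and DMSO/no-enzyme controls.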
Anesthetic bind = binds horse apoferritin like a general anesthetic. P02791. apoferritin/1-aminoanthracene competitive binding, fluorescence. Potency, µM (titrated, usually from 77.5 µM), most hits filed as inhibitors. hit rate 0.074% among 350,000. AID 485281; further: nearly all actives have a fitted effect of over 20% in size
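10 uM apoferritin + 50% sat. 1-AMA, PBS; cpd 10 min RT; Ex380/Em535 endpoint; normalized to free probe vs complex; 4-param Hill fit; propofol titration as pos. ctrl.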
rTrxR1 inhibitor = blocks rat thioredoxin reductase 1. recombinant rTrxR1, NADPH fluorescence consumption, selenite substrate. Potency, µM (titrated, usually from 114 µM), hits mostly inhibitors. AID 588453. O89049. hit rate 1% among 390,000; further: nearly all actives have a fitted effect of over 65% in size
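Rat TrxR1 (90 nM in the dispensed reagent) was pre-reduced with 400 uM NADPH for 5 min at room temperature, then incubated with compound for 15 min. After 400 uM selenite was added, NADPH fluorescence (Ex 340/Em 450 nm) was followed for 8 min.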
A number is an active result. Sampled rows, rich in hits. Any-hit rate of the full collection: about 2.5%. Unless noted, the call rests on the fitted dose curve; in most records, active means well fitted curve in the direction sought with a large enough effect; inconclusive means small, poorly fitted or top-dose-only effect, or another doubt; inactive means no such curve, though single readings can be large; an effect the other way counts as inactive or inconclusive.

Sequences of proteins named here, by UniProt entry; tags and fusion partners are left off.
ATP-dependent Clp protease proteolytic subunit (Bacillus subtilis (strain 168)), P80244, UniProt P80244, whole entry, looked up: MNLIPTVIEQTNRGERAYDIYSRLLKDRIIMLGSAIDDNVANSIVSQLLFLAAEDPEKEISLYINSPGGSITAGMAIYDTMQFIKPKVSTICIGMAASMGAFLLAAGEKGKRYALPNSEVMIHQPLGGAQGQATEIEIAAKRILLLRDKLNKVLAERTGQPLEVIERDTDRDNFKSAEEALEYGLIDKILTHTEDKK

CCOC(=O)c1cc2c(=O)n3ccccc3nc2n(Cc2ccco2)c1=NC(=O)c1ccc(Br)cc1 was read as TrxR1 substrate inactive, miR-21 reporter inactive, ClpP mod inactive, Anesthetic bind inactive and rTrxR1 inhibitor inconclusive.
For CCOC(=O)c1cc2c(=O)n3ccccc3nc2n(Cc2ccccc2)c1=N the results were TrxR1 substrate inactive, miR-21 reporter inactive, ClpP mod 15.8µM, Anesthetic bind inactive and rTrxR1 inhibitor inactive.
Screening Cc1cc(C)cc(N2C(=O)CSC23C(=O)N(CC(=O)NCCc2ccccc2)c2ccccc23)c1 (configuration not stated) returned TrxR1 substrate inactive, miR-21 reporter inactive, ClpP mod inactive, Anesthetic bind inactive and rTrxR1 inhibitor inactive.
CCOC(=O)c1cc2c(=O)n3ccccc3nc2n(Cc2ccco2)c1=NC(=O)c1cccnc1 was read as TrxR1 substrate inactive, miR-21 reporter inactive, ClpP mod 3.16µM, Anesthetic bind inactive and rTrxR1 inhibitor inconclusive.
Cc1ccc2nc(/C=C/c3ccc(N(C)C)cc3)ccc2c1 was read as TrxR1 substrate inactive, ClpP mod inactive and rTrxR1 inhibitor inactive.
`O=C(C=Cc1cccnc1)c1ccccc1` gave TrxR1 substrate inactive, ClpP mod inactive and rTrxR1 inhibitor 28.2µM.
`COCCNC(=O)CS(=O)Cc1nc(-c2ccccc2C)oc1C` (configuration not stated) gave TrxR1 substrate inactive, miR-21 reporter inactive, ClpP mod inactive, Anesthetic bind inactive and rTrxR1 inhibitor 15.8µM.
Screening Cc1ccccc1-c1nc(CS(=O)CC(=O)NCc2ccccc2)c(C)o1 (configuration not stated) returned TrxR1 substrate inactive, miR-21 reporter inactive, ClpP mod inactive, Anesthetic bind inactive and rTrxR1 inhibitor inactive.
For Cc1ccc(CCNC(=O)CS(=O)Cc2nc(-c3ccccc3C)oc2C)cc1 (configuration not stated) the results were TrxR1 substrate inactive, miR-21 reporter inactive, ClpP mod inactive, Anesthetic bind inactive and rTrxR1 inhibitor inactive.
`Cc1ccc(CCNC(=O)CS(=O)Cc2nc(-c3ccccc3F)oc2C)cc1` (configuration not stated) gave TrxR1 substrate inactive, miR-21 reporter inactive, ClpP mod inactive, Anesthetic bind inactive and rTrxR1 inhibitor 31.6µM.
For COc1ccc(CCNC(=O)CS(=O)Cc2nc(-c3ccccc3F)oc2C)cc1OC (configuration not stated) the results were TrxR1 substrate inactive, miR-21 reporter inactive, ClpP mod inactive, Anesthetic bind inactive and rTrxR1 inhibitor 50.1µM.
For COc1cc(OC)c(/C=C/c2ccc3ccccc3[n+]2C)c(OC)c1 the results were TrxR1 substrate inactive, ClpP mod inactive and rTrxR1 inhibitor inactive.
For CCN1CCN(Cc2c(O)ccc3c(=O)c(-c4ccc(OC)c(OC)c4)c(C)oc23)CC1 the results were TrxR1 substrate inactive, miR-21 reporter inactive, ClpP mod 28.2µM, Anesthetic bind inactive and rTrxR1 inhibitor inactive.
For Cc1oc2c(CN3CCOCC3)c(O)ccc2c(=O)c1-c1ccc(Br)cc1 the results were TrxR1 substrate inactive, miR-21 reporter inactive, ClpP mod 14.1µM, Anesthetic bind inactive and rTrxR1 inhibitor inactive.
COc1ccc(-c2c(C)oc3c(CN4CCN(C)CC4)c(O)ccc3c2=O)cc1 was read as TrxR1 substrate inactive, miR-21 reporter inactive, ClpP mod inactive, Anesthetic bind inactive and rTrxR1 inhibitor inactive.
Screening CCOc1nc(-c2ccccc2)ccc1-c1noc(COC)n1 returned TrxR1 substrate inactive, miR-21 reporter inactive, ClpP mod 35.5µM, Anesthetic bind inactive and rTrxR1 inhibitor inactive.
`CCOc1nc(-c2ccccc2)ccc1-c1noc(-c2ccncc2)n1` gave TrxR1 substrate inactive, miR-21 reporter inactive, ClpP mod inactive, Anesthetic bind inactive and rTrxR1 inhibitor inactive.
CCOc1nc(-c2ccccc2)ccc1-c1noc(-c2cccs2)n1 was read as TrxR1 substrate inactive, miR-21 reporter inactive, ClpP mod 25.1µM, Anesthetic bind inactive and rTrxR1 inhibitor inactive.
COCc1nc(-c2ccc(-c3ccccc3)nc2OC)no1 was read as TrxR1 substrate inactive, miR-21 reporter inactive, ClpP mod inconclusive, Anesthetic bind inactive and rTrxR1 inhibitor inactive.
Screening Cc1cn2c(=O)c(S(=O)(=O)NCCc3ccccc3)c(C)nc2s1 returned TrxR1 substrate inactive, miR-21 reporter inactive, ClpP mod 28.2µM, Anesthetic bind inactive and rTrxR1 inhibitor inactive.
For Cc1nc2scc(C)n2c(=O)c1S(=O)(=O)NCCc1ccccc1 the results were TrxR1 substrate inactive, miR-21 reporter inactive, ClpP mod inactive, Anesthetic bind inactive and rTrxR1 inhibitor inactive.
COc1ccccc1CNS(=O)(=O)c1c(C)nc2sc(C)cn2c1=O was read as TrxR1 substrate inactive, miR-21 reporter inactive, ClpP mod 31.6µM, Anesthetic bind inactive and rTrxR1 inhibitor inactive.
`CN1CCC(=NNC(=O)C(=O)NC2CCCC2)CC1` gave TrxR1 substrate inactive, miR-21 reporter inactive, ClpP mod 31.6µM, Anesthetic bind inactive and rTrxR1 inhibitor inactive.
For CN(C)S(=O)(=O)c1cccc(COc2ccccc2C(=O)Nc2ccccc2)c1 the results were TrxR1 substrate inactive, miR-21 reporter inactive, ClpP mod inactive, Anesthetic bind inactive and rTrxR1 inhibitor inactive.
Screening CN(C)S(=O)(=O)c1cccc(NC(=O)c2ccccc2OCc2ccc(F)cc2)c1 returned TrxR1 substrate inactive, miR-21 reporter inactive, ClpP mod 20µM, Anesthetic bind inactive and rTrxR1 inhibitor inactive.
For O=C(c1ccco1)N1CCN(CC(=O)N2CCCc3c2c(=O)oc2ccc(O)cc32)CC1 the results were TrxR1 substrate inactive, miR-21 reporter inactive, ClpP mod inactive, Anesthetic bind inactive and rTrxR1 inhibitor 15.8µM.
`COCCNC(=O)CSc1nnc(-c2ccc(OC)c(OC)c2)c(-c2ccc(OC)c(OC)c2)n1` gave TrxR1 substrate inactive, miR-21 reporter inactive, ClpP mod inactive, Anesthetic bind inactive and rTrxR1 inhibitor inactive.
`CC1CCC(=C(C#N)c2nc(-c3cc4ccccc4oc3=O)cs2)CC1` (configuration not stated) gave TrxR1 substrate inactive, miR-21 reporter inactive, ClpP mod 3.55µM, Anesthetic bind inactive and rTrxR1 inhibitor inactive.
Screening CCc1ccc(C(C)NC(=O)c2cc(C)oc2C)cc1 (configuration not stated) returned TrxR1 substrate inactive, miR-21 reporter inactive, ClpP mod inactive, Anesthetic bind inactive and rTrxR1 inhibitor 20µM.
For CCCCCCCCCCOc1cc(OCCCCCCCCCC)cc(N(CC(=O)O)CC(=O)O)c1 the results were Anesthetic bind inactive.
For COc1ccc(CN(C)C(=O)CCl)cc1 the results were TrxR1 substrate inactive, miR-21 reporter inconclusive, ClpP mod inactive, Anesthetic bind inactive and rTrxR1 inhibitor inconclusive.
For CN(Cc1ccc(Cl)cc1)C(=O)CCl the results were TrxR1 substrate inactive, miR-21 reporter inconclusive, ClpP mod inactive, Anesthetic bind inactive and rTrxR1 inhibitor 6.31µM.
